# Values of other authors in PMC8070514, “Antibacterial and Antibiofilm Activities of Novel Antimicrobial Peptides against Multidrug-Resistant Enterotoxigenic Escherichia Coli” (International Journal of Molecular Sciences, 2021).
# System: ETEC adhesion to human colorectal cancer cell Caco-2
# Settings: by blocking CFA/I cilia on ETEC; cited from earlier work
substance,measurement,value
histatin-5,Effect on ETEC adhesion to Caco-2,reduces the number of ETEC adhesion
